Only a part is listed here, and it is no random draw. Some salts or complexes appear as unconnected parts, following the source record. Active and inactive are the calls of the source.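 Rule for the calls: active = compounds whose cAMP rise, as percent of the full-agonist control response, exceeds 60; inactive = the rest.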
target: Prostaglandin E2 receptor EP2 subtype (Homo sapiens) (UniProt P43116); assay: EP2 receptor modulators, cAMP readout, primary screen, cell-based, HTRF cAMP, PGE2 stimulation (AID 940); conditions: EP2-expressing cells, cAMP HTRF FRET, PGE2 co-stimulation; at 25 µM; active compounds read high;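 note: rat C6 glioma line stably carrying human EP2 under a CMV promoter; the protocol text gives 20 µM as final concentration; 100% = response of wells given 1 µM PGE2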

Amino acid sequences for entries named in this document (tags omitted).
UniProt P43116, whole entry: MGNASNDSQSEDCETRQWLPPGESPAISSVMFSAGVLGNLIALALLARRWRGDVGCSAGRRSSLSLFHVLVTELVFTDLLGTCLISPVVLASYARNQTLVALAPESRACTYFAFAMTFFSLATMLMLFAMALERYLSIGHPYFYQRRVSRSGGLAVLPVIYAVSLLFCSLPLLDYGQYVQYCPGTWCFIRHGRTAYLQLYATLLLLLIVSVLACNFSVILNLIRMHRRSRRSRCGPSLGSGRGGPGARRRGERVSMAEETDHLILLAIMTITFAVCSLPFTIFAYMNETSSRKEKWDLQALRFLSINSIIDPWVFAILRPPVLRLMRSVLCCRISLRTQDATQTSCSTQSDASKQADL

SMILES | induction
N1=C(c2nnc(-c3nn[nH]n3)nn2)NNN1 | inactive: 17.7%
CP(=O)(Nc1ccccc1Br)Oc1ccccc1 (stereo unspecified) | inactive: 8.07%
COc1ccccc1OP(C)(=O)Nc1ccccc1 (stereo unspecified) | inactive: 19.4%
CP(=S)(Nn1cnnc1)Oc1ccccc1 (stereo unspecified) | inactive: 9.61%
CCc1ccc(OP(C)(=O)N2CCN(c3ccc([N+](=O)[O-])cc3)CC2)cc1 (stereo unspecified) | inactive: -65.8%
CP(=O)(NC(=O)Nc1ccccc1)Oc1ccccc1 (stereo unspecified) | inactive: 16.5%
Cc1cc(C)cc(OP(C)(=O)Nc2ccc(SC(F)(F)F)cc2)c1 (stereo unspecified) | inactive: 8.22%
Cc1cccc(C)c1OP(C)(=O)Nc1ccc(SC(F)(F)F)cc1 (stereo unspecified) | inactive: 13.6%
CP(=O)(Nc1ccc(SC(F)(F)F)cc1)Oc1ccc(Cl)cc1 (stereo unspecified) | inactive: -70.2%
CP(=O)(Oc1ccccc1)OC(c1ccccc1)C(F)(F)F (stereo unspecified) | inactive: 43.6%
CP(=O)(Nc1ccccn1)Oc1ccc(Cl)cc1 (stereo unspecified) | inactive: 8.77%
CCOC(=O)c1ccc(NP(C)(=O)Oc2ccc(OC)cc2)cc1 (stereo unspecified) | inactive: -10.8%
CCOP(C)(=S)SCC(=O)NC(C)C(=O)O (stereo unspecified) | inactive: 3.17%
CCN(CC)CCCOC(=O)C(O)(c1ccccc1)c1ccccc1 | inactive: 15.6%
O=[N+]([O-])c1ccc2c(c1)C=Nc1ccccc1O2 | inactive: -30.6%
CC(C)(C)c1ccc(OP(C)(=O)Nc2ccc(SC(F)(F)F)cc2)cc1 (stereo unspecified) | inactive: -14.3%
Cc1cccc(C)c1OP(C)(N)=O (stereo unspecified) | inactive: 9.86%
Cc1cc(C)cc(OP(C)(N)=O)c1 (stereo unspecified) | inactive: 8.25%
COc1ccccc1OP(C)(=O)Nc1cc(Cl)ccc1C (stereo unspecified) | inactive: -3.59%
COc1ccc(OP(C)(=O)Nc2cccc(F)c2)cc1 (stereo unspecified) | inactive: -14.9%
COc1ccccc1OP(C)(=O)Nc1ccc(C)cc1 (stereo unspecified) | inactive: 1.26%

SMILES | induction
Cc1ccc(NP(C)(=O)Oc2ccccc2)c(C)c1 (stereo unspecified) | inactive: 9.78%
CCOC(=O)c1ccc(NP(C)(=O)Oc2ccccc2)cc1 (stereo unspecified) | inactive: -51.1%
O=C(O)c1cccc(Nc2c([N+](=O)[O-])cc([N+](=O)[O-])cc2[N+](=O)[O-])c1 | inactive: 25.9%
CC1=NCCc2c1[nH]c1ccccc21.O=[N+]([O-])c1cc([N+](=O)[O-])c(O)c([N+](=O)[O-])c1 | inactive: 10.4%
CCOC(=O)c1ccc(NP(C)(=O)Oc2cc(C)cc(C)c2)cc1 (stereo unspecified) | inactive: -68.2%
Cc1cc(C)cc(OP(C)(=O)Nc2ccc(C)cc2C)c1 (stereo unspecified) | inactive: 1.66%
COc1ccccc1OP(C)(=O)Nc1cccc(Br)c1 (stereo unspecified) | inactive: -9.21%
Cc1ccc(C)c(NP(C)(=O)Oc2ccccc2)c1 (stereo unspecified) | inactive: 7.42%
CP(=O)(Nc1cccc(Br)c1)Oc1ccccc1 (stereo unspecified) | inactive: -14.4%
Cc1cc(C)cc(OP(C)(=O)Nc2ccccn2)c1 (stereo unspecified) | inactive: 2.75%
O=[N+]([O-])c1cc([N+](=O)[O-])c(-n2nnc3ccccc32)c([N+](=O)[O-])c1 | active: 63.8%
Cc1nc2ccc3ccccc3c2s1.O=[N+]([O-])c1cc([N+](=O)[O-])c(O)c([N+](=O)[O-])c1 | inactive: -6.42%
O=[N+]([O-])c1cc([N+](=O)[O-])c(Nc2nnnn2CCO)c([N+](=O)[O-])c1 | inactive: 1.19%
CCOC(=O)C(CC)C1=NC(C)(C)Cc2ccccc21.O=[N+]([O-])c1cc([N+](=O)[O-])c(O)c([N+](=O)[O-])c1 (stereo unspecified) | inactive: 10.2%
CP(=O)(Nc1ccc(SC(F)(F)F)cc1)Oc1ccccc1 (stereo unspecified) | inactive: -32.2%
CCCOc1ccc(NP(C)(=O)Oc2ccc(Cl)cc2)cc1 (stereo unspecified) | inactive: -91.1%
COc1ccccc1OP(C)(=O)Nc1c(C)cccc1C (stereo unspecified) | inactive: 19.7%
CN1CCCCC1COC(=O)C1(O)c2ccccc2CCc2ccccc21 (stereo unspecified) | inactive: -4.76%
CN(C)CCOC(=O)C(O)(c1ccccc1)C1CCCCC1 (stereo unspecified) | inactive: 28.9%
COc1ccc(NP(C)(=O)Oc2ccccc2OC)cc1 (stereo unspecified) | inactive: 19.9%
COc1ccc(OP(C)(=O)Nc2cccc(Br)c2)cc1 (stereo unspecified) | inactive: -3.78%

SMILES | induction
O=[N+]([O-])c1ccc(OP2(=O)COCCO2)cc1 (stereo unspecified) | inactive: -13%
O=[N+]([O-])c1cc([N+](=O)[O-])c(NCC2CCS(=O)(=O)C2)c([N+](=O)[O-])c1 (stereo unspecified) | inactive: -11.3%
Cc1cc(-c2cccc3ccccc23)c(C)cn1.O=[N+]([O-])c1cc([N+](=O)[O-])c(O)c([N+](=O)[O-])c1 | active: 85.5%
CCOP(C)(=S)SCC(=O)NC(C)(CC)C(=O)O (stereo unspecified) | inactive: 5.7%
CP(=O)(Nc1ccc(SC(F)(F)F)cc1)Oc1ccc(F)cc1 (stereo unspecified) | inactive: -37.1%
Cc1ccccc1NP(C)(=O)Nc1ccccc1C | inactive: -2.44%
NNC(NN)NN.n1nc(-c2nn[nH]n2)n[nH]1 | inactive: 3.44%
CP(=O)(Nc1ccc2c(c1)OCCO2)Oc1ccccc1 (stereo unspecified) | inactive: -3.54%
CP(=O)(Nc1ccccc1F)Oc1ccccc1 (stereo unspecified) | inactive: 19.6%
CC(C)c1ccc(OP(C)(=O)Nc2ccc(SC(F)(F)F)cc2)cc1 (stereo unspecified) | inactive: -48%
CN1CC[C@@H](OC(=O)[C@](O)(c2ccccc2)C2CCCC2)C1 | inactive: 31.7%
COc1ccc2c(c1O)-c1c(O)c(OC)cc3c1[C@H](C2)[N+](C)(C)CC3.O=[N+]([O-])c1cc([N+](=O)[O-])c([O-])c([N+](=O)[O-])c1[O-] | inactive: 19.9%
O=C(OC1CN2CCC1CC2)c1ccc([N+](=O)[O-])cc1 (stereo unspecified) | inactive: -2.19%
O=C(OCCN1CCN(CCOCc2ccccc2)CC1)C(O)(c1ccccc1)c1ccccc1 | inactive: -0.86%
CCOC(=O)c1ccc(NP(C)(=O)Oc2ccc(F)cc2)cc1 (stereo unspecified) | inactive: -56.9%
COc1ccc(OP(C)(=O)Nc2ccc(SC(F)(F)F)cc2)cc1 (stereo unspecified) | inactive: -76%
CP(=O)(Nc1ccccc1)Oc1ccc(F)cc1 (stereo unspecified) | inactive: 16.8%
CCCCCOc1ccc(NP(C)(=O)Oc2ccc(Cl)cc2Cl)cc1 (stereo unspecified) | inactive: -12%
CCN(CC)CCCOC(=O)C(O)(c1ccccc1)C1CCCCC1 (stereo unspecified) | inactive: -1.37%

From PubChem BioAssay AID940 (Emory University Molecular Libraries Screening Center, 2007)
